Molecular target: human μ-opioid receptor (OPRM1) (Homo sapiens, UniProt P35372)
Test: cell-based

By UniProt entry, the sequences of proteins in these tests, tags left out.
UniProt P35372, whole entry: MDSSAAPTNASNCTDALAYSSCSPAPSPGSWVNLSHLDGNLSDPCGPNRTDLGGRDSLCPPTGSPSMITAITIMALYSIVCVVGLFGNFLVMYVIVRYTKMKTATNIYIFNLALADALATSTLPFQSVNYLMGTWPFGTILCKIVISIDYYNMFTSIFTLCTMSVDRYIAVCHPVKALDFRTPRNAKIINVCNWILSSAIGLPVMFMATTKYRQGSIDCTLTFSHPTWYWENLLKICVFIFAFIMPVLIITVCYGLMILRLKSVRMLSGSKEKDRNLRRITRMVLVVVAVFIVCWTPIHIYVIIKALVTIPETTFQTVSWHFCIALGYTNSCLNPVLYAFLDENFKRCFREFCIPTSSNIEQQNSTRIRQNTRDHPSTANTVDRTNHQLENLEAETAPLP

| SMILES | EC50 [nM] | Emax (read-out: MOR Agonist %Emax ± SEM) [%] |
| --- | --- | --- |
| Oc1cccc2c1O[C@H]1CN(C[C@H]3C[C@@H]3c3ccccc3)[C@H]3CCC[C@@]21C3 [(+)-17, (3S,6aR,11aR)-2-(((1S,2S)-2-Phenylcyclopropyl)methyl)-1,3,4,5,6,11a-hexahydro-2H-3,6a-methanobenzofuro[2,3-c]azocin-10-ol] | > 10000 |  |
| Oc1cccc2c1O[C@H]1CN(CCc3ccccc3)[C@H]3CCC[C@@]21C3 [(-)-1, (3S,6aR,11aR)-2-Phenethyl-1,3,4,5,6,11a-hexahydro-2H-3,6a-methano-benzofuro[2,3-c]azocin-10-ol] | 2.66 | 35 |
